Data on one molecule can be found in ChEMBL document CHEMBL1255506, “Discovery of quinolines as selective glucocorticoid receptor agonists” (Bioorg Med Chem Lett, 2010).

Structures are written as SMILES.

The assay has as its target T1, Progesterone receptor (Homo sapiens, UniProt P06401).
T1 sequence (P06401 whole entry): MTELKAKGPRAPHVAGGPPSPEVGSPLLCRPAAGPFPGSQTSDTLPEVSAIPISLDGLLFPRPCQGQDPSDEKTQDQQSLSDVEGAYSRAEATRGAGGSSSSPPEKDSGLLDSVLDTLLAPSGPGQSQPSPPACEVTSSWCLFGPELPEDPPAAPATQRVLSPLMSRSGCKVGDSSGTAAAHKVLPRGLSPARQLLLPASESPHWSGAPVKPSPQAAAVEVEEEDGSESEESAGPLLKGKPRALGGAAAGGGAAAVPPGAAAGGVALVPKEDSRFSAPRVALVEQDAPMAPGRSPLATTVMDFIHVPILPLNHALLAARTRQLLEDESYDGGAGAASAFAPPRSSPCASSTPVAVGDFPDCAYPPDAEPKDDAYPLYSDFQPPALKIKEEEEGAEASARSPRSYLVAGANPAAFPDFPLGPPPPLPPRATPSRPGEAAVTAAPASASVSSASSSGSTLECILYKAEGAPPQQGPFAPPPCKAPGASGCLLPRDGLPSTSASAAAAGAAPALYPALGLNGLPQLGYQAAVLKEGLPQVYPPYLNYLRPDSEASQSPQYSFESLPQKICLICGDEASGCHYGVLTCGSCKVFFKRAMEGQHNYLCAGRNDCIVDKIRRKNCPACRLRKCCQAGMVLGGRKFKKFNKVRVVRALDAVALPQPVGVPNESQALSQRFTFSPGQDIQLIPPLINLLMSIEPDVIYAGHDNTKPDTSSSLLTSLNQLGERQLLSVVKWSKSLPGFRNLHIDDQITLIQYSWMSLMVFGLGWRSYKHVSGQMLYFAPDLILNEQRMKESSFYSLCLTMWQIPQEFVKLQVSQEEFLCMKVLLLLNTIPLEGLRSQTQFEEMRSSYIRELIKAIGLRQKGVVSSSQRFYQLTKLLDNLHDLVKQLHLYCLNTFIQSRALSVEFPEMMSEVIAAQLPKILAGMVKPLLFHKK
The assay can be described thus: Binding affinity to human recombinant progesterone receptor expressed in baculovirus infected Sf9 cells.

On to `Cc1noc(=O)c2ccc(NC(=O)C(O)(CC(C)(C)c3cccc4c3OCC4)C(F)(F)F)cc12` (stereo unspecified), for which the half-inhibitory concentration (IC50) is 20 nM.
